This passage reports Mean % inhibition results from patent US10206867B2, “Alcoholic extract of aerial parts of Solidago virgaurea subsp. alpestris, method of production thereof, and cosmetic or dermatological composition containing it” (CHANEL PARFUMS BEAUTE, priority 2015, dated 2019).

A short description of this experiment: Antioxidant activity, pholasin ABEL chemiluminescence test, halogenated radicals. Type of experiment: biochemical. On the procedure:
To determine the capacity of Goldenrod for trapping free radicals (hydroxyls, halogenated derivatives, peroxynitrites and superoxide radicals), i.e. its antioxidant capacity, chemiluminescence tests dependent on pholasin ABEL®1 were used (Knight Scientific Limited) according to the manufacturer's instructions. Briefly, various concentrations of ingredients were incubated with pholasin, a well known photoprotein that emits light when it binds to free radicals. D-Mannitol, albumin, vitamin E and L-ascorbic acid were used as positive controls for determining the capacity of the extract for trapping hydroxyl radicals, halogenated derivatives, peroxynitrites and superoxides, respectively.
All the determinations were repeated 5 times and the mean values were determined. The antioxidant capacity of the ingredient is expressed as the percentage reduction of the luminescence peak of Pholasin observed during the assay in the presence and in the absence of the active ingredient ±SD, with the untreated control represented at 0%.

In the case of “Albumin: positive control for trapping halogenated derivatives”, the Mean % inhibition was found to be 64.9 ± 13.9% (0.25 mg/ml); 82.3 ± 8.9% (0.5 mg/ml); 88.5 ± 5.7% (0.75 mg/ml); 92.1 ± 3.3% (1 mg/ml); 93.9 ± 0.69% (1.25 mg/ml).
